{
  "sequences": {"note": "By UniProt entry, the sequences of proteins in these tests, tags left out. Where a name states a change or a piece, a line headed by the entry shows the natural chain unless it says otherwise.", "UniProt Q16881, whole entry, looked up": "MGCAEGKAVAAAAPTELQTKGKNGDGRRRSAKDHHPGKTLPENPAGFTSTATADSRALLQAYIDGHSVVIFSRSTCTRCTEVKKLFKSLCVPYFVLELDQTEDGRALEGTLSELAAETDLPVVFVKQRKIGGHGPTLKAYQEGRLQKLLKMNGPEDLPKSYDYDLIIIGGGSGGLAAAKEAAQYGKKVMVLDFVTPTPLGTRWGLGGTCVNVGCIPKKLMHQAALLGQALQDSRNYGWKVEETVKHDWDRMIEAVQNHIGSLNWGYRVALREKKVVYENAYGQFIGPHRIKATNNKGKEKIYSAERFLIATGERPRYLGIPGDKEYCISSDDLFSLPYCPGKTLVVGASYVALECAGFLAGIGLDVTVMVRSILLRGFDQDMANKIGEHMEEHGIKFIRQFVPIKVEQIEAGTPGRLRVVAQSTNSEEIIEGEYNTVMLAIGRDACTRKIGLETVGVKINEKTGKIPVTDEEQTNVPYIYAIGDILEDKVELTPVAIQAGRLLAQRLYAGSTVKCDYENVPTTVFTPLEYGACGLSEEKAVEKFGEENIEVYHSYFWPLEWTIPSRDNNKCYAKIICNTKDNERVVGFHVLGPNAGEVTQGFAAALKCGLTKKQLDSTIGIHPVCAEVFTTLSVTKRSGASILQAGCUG", "UniProt P00390": "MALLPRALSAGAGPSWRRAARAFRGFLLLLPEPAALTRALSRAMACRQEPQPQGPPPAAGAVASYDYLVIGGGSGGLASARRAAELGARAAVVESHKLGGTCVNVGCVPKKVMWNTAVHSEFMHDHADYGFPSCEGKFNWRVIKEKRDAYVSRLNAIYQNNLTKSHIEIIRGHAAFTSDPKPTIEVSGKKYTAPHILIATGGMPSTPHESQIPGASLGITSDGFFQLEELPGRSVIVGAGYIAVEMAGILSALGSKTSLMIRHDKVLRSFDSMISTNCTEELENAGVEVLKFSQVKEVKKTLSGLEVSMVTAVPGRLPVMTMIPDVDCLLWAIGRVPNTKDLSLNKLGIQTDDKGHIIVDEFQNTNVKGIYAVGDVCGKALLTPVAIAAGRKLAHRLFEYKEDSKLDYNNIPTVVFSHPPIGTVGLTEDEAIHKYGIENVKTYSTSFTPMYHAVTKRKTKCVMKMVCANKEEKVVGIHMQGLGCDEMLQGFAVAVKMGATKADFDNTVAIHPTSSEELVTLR"},
  "source": "patent US6372772B1",
  "about": "“Inhibitors of redox signaling and methods of using same” (Prolx Pharmaceuticals Corporation, priority 1997, dated 2002)",
  "key": {"thioredoxin reductase": {"biological_target": "thioredoxin reductase (Homo sapiens, UniProt Q16881)", "assay": "thioredoxin reductase assay (DTNB reduction)", "details": "ratio of IC50 glutathione reductase to IC50 thioredoxin reductase"}, "[1]": {"test_system": "NCI's panel of 60 human cancer cell lines", "details": "mean 50% growth inhibition concentration, entire cell line panel; cited from earlier work"}, "glutathione reductase": {"biological_target": "glutathione reductase (Homo sapiens, UniProt P00390)", "assay": "glutathione reductase assay (DTNB reduction)", "format": "biochemical", "details": "Table II"}, "[2]": {"biological_target": "thioredoxin reductase/thioredoxin (Homo sapiens, UniProt Q16881)", "assay": "thioredoxin reductase/thioredoxin-dependent insulin reduction assay", "format": "biochemical"}, "leukemia cell line": {"test_system": "leukemia cell line", "details": "mean 50% growth inhibition concentration; cited from earlier work"}},
  "data": [
    {"smiles": "Cn1c(=O)c([N+](=O)[O-])c(N=[N+]=[N-])c2ccccc21", "values": [
      {"measurement": "GR/TR", "setting": "thioredoxin reductase", "value": 330},
      {"measurement": "GI50 (μg/ml) All Tumors", "setting": "[1]", "value": 0.7, "unit": "µg/mL"},
      {"measurement": "IC50GR", "setting": "glutathione reductase", "value": 33, "unit": "µg/mL"},
      {"measurement": "IC50 (μg/ml) in TR/Trx Assay", "setting": "[2]; Table I, 30 min preincubation", "value": 0.49, "unit": "µg/mL"},
      {"measurement": "IC50TRTrx", "setting": "[2]; Table II", "value": 0.49, "unit": "µg/mL"},
      {"measurement": "in vitro IC50 TR/Trx (μg/ml)", "setting": "[2]; Table III", "value": "≦0.5 μg/ml"},
      {"measurement": "TR/TRTrx", "setting": "[2]; ratio of IC50 TR alone and IC50 TR/Trx assay", "value": 0.2},
      {"measurement": "GI50 (μg/ml) Leukemias", "setting": "leukemia cell line", "value": 0.2, "unit": "µg/mL"}
    ]}
  ]
}
